Reference: patent publication US20100196310A1, “METHODS OF TREATING CANCER BY ADMINISTERING HUMAN IL-18 COMBINATIONS” (SMITHKLINE BEECHAM CORPORATION, priority 2007, published 2010)

Test system: MOPC315 murine plasmocytoma transfected with ErbB2 (HER2)
Assay: mIL-18 and HERCEPTIN combination, MOPC315 plasmocytoma, study MOPC.D3J03
Assay type: in vivo, SCID mice
Settings: HERCEPTIN as monotherapy
Procedure: Both the MOPC315.D3j005 and MOPC.D3j03 studies were analyzed to evaluate effect of murine IL-18 (SEQ ID NO:2) combination therapy with HERCEPTIN® on the growth of murine plasmocytoma. For this experiment we had to transfect MoPC315 cells with ErbB2 (HER2). For transfection, we used 1.5 ug ErbB2 expression vector (BioCat-108912-pcdna3.1(−) ErbB2) in a 6-well dish, as described using liposomal transfection with Lipofectamine™ and Optimem™ media from Gibco. Selective pressure neomycin (450 ug/ml G418 Sigma G6816) was added to the cultures after 2 days. Initial positive populations were selected by fluorescent microscopic inspection of in situ cultures stained with Alexafluor488 labeled HERCEPTIN® monoclonal antibody and cloned by limiting dilution (206434 p 70-72). D3 ErbB2 expression tested with Alexafluor488 labeled HERCEPTIN® flow cytometry. MOPC.D3 cell line was selected and used for evaluation of HERCEPTIN® and IL-18 anti-tumor efficacy.
This study was identical to the MOPC315.D3J005 study above (Example 4.a.) with the exception that the therapy started before the tumors became macroscopically apparent, on day 7 post-implantation. In addition, the maximal dose of HERCEPTIN was 100 μg/mouse, and the minimal dose was 25 μg/mouse in this study.
The data are expressed as mean+/−SD (FIG. 17), and as median+/−range (FIG. 18). […]

## HERCEPTIN®: an anti-Her2/neu receptor antibody
  anti-tumor activity: minimal activity
